# Laboratory results reported in PubChem BioAssay AID624169 (The Scripps Research Institute Molecular Screening Center, 2012).
# Amino acid sequences for entries named in this document (tags omitted).
# UniProt P35363, whole entry: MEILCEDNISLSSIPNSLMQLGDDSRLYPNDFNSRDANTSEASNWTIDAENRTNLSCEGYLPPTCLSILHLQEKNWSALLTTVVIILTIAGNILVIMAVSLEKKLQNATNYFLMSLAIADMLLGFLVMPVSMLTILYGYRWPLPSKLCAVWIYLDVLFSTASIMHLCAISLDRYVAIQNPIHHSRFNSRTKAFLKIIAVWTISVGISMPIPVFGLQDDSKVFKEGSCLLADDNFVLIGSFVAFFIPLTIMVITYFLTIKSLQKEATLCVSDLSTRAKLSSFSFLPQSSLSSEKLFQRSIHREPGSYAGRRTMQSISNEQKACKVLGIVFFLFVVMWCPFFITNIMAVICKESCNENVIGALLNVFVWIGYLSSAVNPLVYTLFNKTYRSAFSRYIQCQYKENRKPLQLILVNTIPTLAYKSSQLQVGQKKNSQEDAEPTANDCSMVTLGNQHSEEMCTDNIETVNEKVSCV
# Only a part is listed here, and it is no random draw. Some results for these compounds are left out of this collection, so the calls shown say nothing about other tests. The source made the active and inactive calls.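 How the source made its calls: active means activation above a run cutoff, the mean activation of all tested compounds plus 3 SD (cut at about 14% in these data); inactive means the rest.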
# Target: 5-hydroxytryptamine receptor 2A (Mus musculus) (UniProt P35363)
# Assay: activation of mouse 5-HT2A receptor – cell-based, luminescence, primary screen (AID 624169);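 further: 0% = plate median of compound wells and 100% = 30 µM serotonin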
# Conditions: CHO-K1 mHTR2A beta-arrestin complementation, at 7.6 µM, stronger effect = higher value, percent of 30 µM serotonin response
row,SMILES,activation
1,Cc1ccccc1C(=O)NCC1(N2CCCCC2)CCCCC1,inactive: -0.46%
2,CN(C)C1CCCC1OC(=O)C(O)(c1ccccc1)c1ccccc1 (stereo unspecified),inactive: -3.32%
3,CN(C)c1ccc(C(=O)NCC2(N(C)C)CCCCC2)cc1,inactive: -4.82%
4,C=CCN1CCN(CCOC(=O)C(O)(c2ccccc2)c2ccccc2)CC1,inactive: -0.68%
5,O=C(NCC1(N2CCCCC2)CCCCC1)c1cc(F)c(F)cc1Cl,inactive: -0.53%
6,Cc1cc(C(=O)NCC2(N3CCCCC3)CCCCC2)ccc1[N+](=O)[O-],inactive: -10.9%
7,CCN1CCCC(OC(=O)C2(O)c3ccccc3C=Cc3ccccc32)C1 (stereo unspecified),inactive: -3.09%
8,O=C(NCC1(N2CCCCC2)CCCCC1)c1cccc(Br)c1,inactive: -7.82%
9,COc1ccc(C(=O)NCC2(N(C)C)CCCCC2)cc1,inactive: -0.97%
10,O=C(NCC1(N2CCCCC2)CCCCC1)c1cc([N+](=O)[O-])ccc1Cl,inactive: -3.16%
11,CN1[C@@H]2CC[C@H]1CC(OC(=O)C(O)(c1ccccc1)c1ccccc1)C2 (stereo partly specified),inactive: -8.31%
12,CC(C)N1C(=O)CC2(CCN(CCOC(=O)C(O)(c3ccccc3)c3ccccc3)CC2)C1=O,inactive: 2.77%
13,CCN(CC)CC(C)C(C)OC(=O)C(O)(c1ccccc1)c1ccccc1 (stereo unspecified),inactive: 2.64%
14,COc1cc(SC)ccc1C(=O)NCC1(N(C)C)CCCCC1,inactive: -11.5%
15,Cc1ccc(C(=O)NCC2(N3CCCCC3)CCCCC2)cc1,inactive: -4.34%
16,O=C(OC1CN2CCC1CC2)C(CO)(c1ccccc1)c1ccccc1 (stereo unspecified),inactive: -2.58%
17,COc1ccc(Br)c(C(=O)NCC2(N3CCCCC3)CCCCC2)c1,inactive: -2.18%
18,C=C(C)C#CC(O)(C(=O)OC1CCN(C)CC1)c1ccccc1 (stereo unspecified),inactive: 1.04%
19,CN(C)c1cccc(C(=O)NCC2(N(C)C)CCCCC2)c1,inactive: -6.05%
20,CC(C)Oc1ccc(C(=O)NCC2(N(C)C)CCCCC2)cc1,inactive: -7.59%
21,O=C(OCCN1CCCC1)C(O)(c1ccccc1)c1ccccc1,inactive: 0.41%
22,CN(C)C1(CNC(=O)c2ccc(Br)cc2)CCCCC1,inactive: -0.9%
23,COc1cc(C(=O)NCC2(N(C)C)CCCCC2)c([N+](=O)[O-])cc1OC,inactive: 0.23%
24,COc1cccc(C(=O)NCC2(N3CCCCC3)CCCCC2)c1,inactive: -2.58%
25,COc1ccc(Cl)cc1C(=O)NCC1(N(C)C)CCCCC1,inactive: -7.24%
26,O=C(NCC1(N2CCCCC2)CCCCC1)c1cccc(Cl)c1,inactive: -15.3%
